Measurements reported in paper PMC5762315, “Inhibition of polo-like kinase 4 (PLK4): a new therapeutic option for rhabdoid tumors and pediatric medulloblastoma” (Oncotarget, 2017).

By UniProt entry, the sequences of proteins in these tests, tags left out. Where a name states a change or a piece, a line headed by the entry shows the natural chain unless it says otherwise.
UniProt P41240: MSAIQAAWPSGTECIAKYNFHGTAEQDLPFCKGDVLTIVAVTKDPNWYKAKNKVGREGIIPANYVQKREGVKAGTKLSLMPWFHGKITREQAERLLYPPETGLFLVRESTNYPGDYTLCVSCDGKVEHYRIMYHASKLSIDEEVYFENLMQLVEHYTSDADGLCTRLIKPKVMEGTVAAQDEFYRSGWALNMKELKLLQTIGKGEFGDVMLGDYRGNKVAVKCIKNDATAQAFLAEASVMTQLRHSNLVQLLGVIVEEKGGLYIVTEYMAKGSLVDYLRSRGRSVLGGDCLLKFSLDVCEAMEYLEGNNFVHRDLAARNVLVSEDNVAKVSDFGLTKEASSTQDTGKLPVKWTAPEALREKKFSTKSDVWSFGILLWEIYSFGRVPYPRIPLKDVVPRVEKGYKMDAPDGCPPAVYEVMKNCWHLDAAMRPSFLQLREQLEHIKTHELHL

Assays:
[1] = target: T1, AURKC (Homo sapiens, UniProt Q9UQB9); test: Kinase activity screening (SelectScreen), AURKC; assay type: biochemical
T1 sequence (Q9UQB9 1-309): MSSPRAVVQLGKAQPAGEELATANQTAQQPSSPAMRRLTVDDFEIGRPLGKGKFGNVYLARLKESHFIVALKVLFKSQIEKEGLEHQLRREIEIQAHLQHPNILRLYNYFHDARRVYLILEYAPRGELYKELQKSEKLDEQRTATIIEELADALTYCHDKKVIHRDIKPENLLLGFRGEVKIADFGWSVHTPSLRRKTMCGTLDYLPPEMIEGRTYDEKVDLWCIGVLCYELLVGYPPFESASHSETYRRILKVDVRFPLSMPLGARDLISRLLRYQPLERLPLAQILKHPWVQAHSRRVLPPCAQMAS

[2] = target: various kinases (Homo sapiens, UniProt P41240); assay type: biochemical; settings: CSK
[3] = system: D283 cells; settings: 72 hours of treatment, control 0.1% DMSO
[4] = system: D283 cells; settings: 24 hour treatment with 100nM
[5] = system: DAOY cells; settings: 24 hour treatment with 100nM
[6] = system: DAOY cells; settings: 72 hours of treatment, control 0.1% DMSO

Q: For `COc1ccc2c(c1)[C@]1(C[C@H]1c1ccc3c(/C=C/c4ccc(CN5C[C@@H](C)O[C@@H](C)C5)cc4)n[nH]c3c1)C(=O)N2` [CFI-400945], which IC50 [1] is on record?
A: 106 nM

Q: What about the “% Inhibition” value [2] of the same molecule?
A: 61% and 63% and 62%

Q: And the “proliferation (MTT) vs control” value [3]?
A: significantly decreased proliferation

Q: And the “cell migration and invasion vs control” value [4]?
A: significant decrease

Q: And the “cell migration and invasion vs control” value [5]?
A: significant decrease

Q: What about the “proliferation (MTT) vs control” value [6] of the same molecule?
A: significantly decreased proliferation

Where “and” joins values, the source holds several entries; their conditions need not be identical. Equal entries are not always repeated.
